{"source": "patent US20090054338A1", "about": "“Synergisms between repartitioning and immunomodulating compounds” (priority 2007, published 2009)", "key": {"[1]": {"assay": "not given", "remark": "listed apart in the source"}}, "note": "Like-named read-outs stand apart in the source and are kept apart here."}
{"substance": "beta 1.3/1.6 D-glucan [Agrastim®]", "values": [{"measurement": "degraded after incubation in rumen fluid", "setting": "2 hours incubation in rumen fluid from cattle", "result": "not more than 3%"}, {"measurement": "degraded after incubation in rumen fluid", "setting": "4 hours incubation in rumen fluid from cattle", "result": "not more than 15%"}, {"measurement": "Remaining beta-glucan (%)", "setting": "incubation period 0.5 hrs in cattle rumen fluid", "result": 98, "unit": "%"}, {"measurement": "Remaining beta-glucan (%)", "setting": "incubation period 2.0 hrs in cattle rumen fluid", "result": 97, "unit": "%"}, {"measurement": "Remaining beta-glucan (%)", "setting": "incubation period 4.0 hrs in cattle rumen fluid", "result": 85, "unit": "%"}, {"measurement": "Remaining beta-glucan (%)", "setting": "incubation period 8.0 hrs in cattle rumen fluid", "result": 60, "unit": "%"}, {"measurement": "Remaining beta-glucan (%)", "setting": "incubation period 12.0 hrs in cattle rumen fluid", "result": 20, "unit": "%"}, {"measurement": "pre-systemic metabolism in cattle", "setting": "[1]; cattle rumen, concluded from the in vitro and in vivo studies", "result": "insignificant pre-systemic metabolism"}, {"measurement": "time to clear the rumen", "setting": "[1]; in vivo, cattle", "result": "≤ 2", "unit": "h"}]}
